Source: PubChem
This is a sample that favours compounds with a hit; in the whole collection about 2.3% have one here.
Nrf2 block: Nrf2 pathway inhibition; Potency, µM (titrated, usually from 46 µM), inactives show top-dose activity change, negative = inhibition, actives largely listed as inhibitors; A549 ARE-Fluc reporter, luciferase luminescence, 18-24 h; 2.1% of 360,000 active; note: potency is the fitted concentration of half-maximal effect; % is set by controls: 0 for no effect and ±100 for the full control effect; nearly all actives have a fitted effect of over 60% in size
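Concentration-response testing used A549 ARE_Fluc cells at 5000 cells/well. Following an 18-24 h compound incubation, viability was read by fluorescence (Ex 405/Em 525) and luciferase output by luminescence.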
Mito fusion yeast: blocks mitochondrial division or promotes mitochondrial fusion. S. cerevisiae fusion-defective mutant growth rescue, CellTiterGlo 48 h. Potency, µM (top dose mostly 46.1 µM), for the others: top-dose growth rescue (activation), most hits filed as activators. 0.23% of 320,000 active. AID 485298; note: potency is the fitted concentration of half-maximal effect; % of control where 0% means no effect; nearly all actives have a fitted effect of over 45% in size
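S. cerevisiae fusion-defective temperature-sensitive mutants (e.g. fzo1-1, mgm1-5) grown 48 h at 37C in YPEG (ethanol/glycerol non-fermentable) medium with 23 nl compound per well; growth rescue read as CellTiterGlo luminescence.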
A549 tox-1: kills or reduces viability of A549 cells in Nrf2 counter-screen; 0.16% of 390,000 active; A549 ARE-Fluc cells, CellTiter-Fluor viability, 18-24 h; Potency, µM (titrated, usually from 46 µM), for the others: top-dose activity change, negative = cytotoxicity, hits mostly inhibitors; note: potency is the fitted concentration of half-maximal effect; % is set by controls: 0 for no effect and ±100 for the full control effect
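A549 ARE_Fluc cells in 5% FBS OPTI-MEM were exposed to compounds in concentration-response for 18-24 h at 37 deg C. Viability was read by CellTiter-Fluor fluorescence (Ex 405/Em 525) after 30 min, before the luciferase read.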
GRP78 ERSR act: ER stress response induction in glioma | Potency, µM, for the others: at the top dose activation, actives largely listed as activators | U87-MG GRP78 promoter luciferase reporter, 16 h | AID 602332 | 0.02% of 420,000 active; note: potency is the fitted concentration of half-maximal effect; series mostly up to about 76 µM; % of control where 0% means no effect; nearly all actives have a fitted effect of over 35% in size
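Stably transfected U87-MG glioma cells carrying a GRP78-based luciferase sensor; 16 h compound incubation. Luminescence end-point read 10 min after Bright-Glo addition at room temperature.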
Nrf2 activator: activates Nrf2 signaling; AREc32 ARE-luciferase reporter (MCF7-derived line), luminescence, 24 h; Potency, µM (highest dose often 46.1 µM), without a hit: at the top dose activation, usual class: activators; 0.31% of 410,000 active; note: potency is the fitted concentration of half-maximal effect; % of control where 0% means no effect; nearly all actives have a fitted effect of over 65% in size
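For detection, Steady-Glo was added and plates sat 30 min at RT; before that, AREc32_Fluc cells grown overnight in OPTI-MEM/5% FBS had been treated with 23 nL compound for 24 hr at 37 deg C.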
miR-21 reporter: miR-21 reporter, rising signal; HeLa miR-21 FLuc reporter, luciferase, 48 h; Potency, µM (titrated, usually from 38.3 µM), for the others: at the top dose reporter change, positive = more light; 340,000 tested, under 10 active; AID 2288; active = well fitted rising curve with a large enough effect; inconclusive = small, poorly fitted or top-dose-only effect; inactive = no such curve, though single readings can be large or run the other way;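 also: % of control where 0% means no effect; miR-21 action dims this reporter so a rising signal means less miR-21 action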
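HeLa cells stably expressing CMV-driven firefly luciferase with a downstream miR-21 binding sequence, endogenously expressing miR-21, were treated with titrations (up to about 40uM final) for 48 hours at 37 degree Celsius. Luciferase luminescence was read after lysis.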
FLuc enzyme inh: firefly luciferase inhibition, Nrf2 hit validation; shares compounds with Nrf2 block; Potency, µM (top dose mostly 57.5 µM), inactives show top-dose activity change, negative = inhibition, hits mostly inhibitors; purified firefly luciferase, luminescence inhibition; 4% of 1,400 active; AID 720522; note: potency is the fitted concentration of half-maximal effect; % is set by controls: 0 for no effect and ±100 for the full control effect; nearly all actives have a fitted effect of over 65% in size
A549 tox-2: toxic to A549 ARE-Fluc cells in Nrf2 counterscreen; A549 ARE-Fluc cells, cytotoxicity counterscreen; AID 720523; 2% of 1,400 active; shares compounds with Nrf2 block; Potency, µM (titrated, usually from 46.1 µM), for inactives: at the top dose activity change, negative = cytotoxicity, hits mostly inhibitors;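 note: potency is the fitted concentration of half-maximal effect; cells exposed to compounds for 18 to 24 hours; % is set by controls: 0 for no effect and ±100 for the full control effect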
ARE-Fluc inh: confirmation of Nrf2 inhibitors in A549 ARE reporter cells | shares compounds with Nrf2 block | A549 ARE-firefly luciferase reporter, luminescence | Potency, µM (top dose mostly 46.1 µM), inactives show at the top dose activity change, negative = inhibition, usual class: inhibitors | 74% of 1,400 active | AID 720524; note: potency is the fitted concentration of half-maximal effect; % is set by controls: 0 for no effect and ±100 for the full control effect; nearly all actives have a fitted effect of over 65% in size
Active calls of the source: *; ? = inconclusive; · = no result given. Calls come from the whole dose curve; as a rule, active = well fitted curve in the direction sought with a large enough effect; inconclusive = small, poorly fitted or top-dose-only effect, or another doubt; inactive = no such curve, though single readings can be large; an effect the other way counts as inactive or inconclusive.

Start of the listing, in advance (two entries):
Short keys – A = Nrf2 block; B = Mito fusion yeast; C = A549 tox-1; D = GRP78 ERSR act; E = Nrf2 activator; F = miR-21 reporter; G = FLuc enzyme inh; H = A549 tox-2; I = ARE-Fluc inh
(1) Cn1c(-c2ccc3ccccc3n2)[n+](C)c2ccccc21
  A = ? | B = -4% | C = -21% | D = -4% | E = 2% | F = -6% | G = · | H = · | I = ·
(2) Cn1c(-c2ccccn2)[n+](C)c2ccccc21
  A = 5.2µM* | B = 4% | C = -8% | D = -6% | E = -1% | F = -1% | G = 0% | H = -1% | I = 10µM*

This part in full, from the first entry:
Short keys – A = Nrf2 block; B = Mito fusion yeast; C = A549 tox-1; D = GRP78 ERSR act; E = Nrf2 activator; F = miR-21 reporter; G = FLuc enzyme inh; H = A549 tox-2; I = ARE-Fluc inh
(1) Cn1c(-c2ccc3ccccc3n2)[n+](C)c2ccccc21
  A = ? | B = -4% | C = -21% | D = -4% | E = 2% | F = -6% | G = · | H = · | I = ·
(2) Cn1c(-c2ccccn2)[n+](C)c2ccccc21
  A = 5.2µM* | B = 4% | C = -8% | D = -6% | E = -1% | F = -1% | G = 0% | H = -1% | I = 10µM*
(3) CN(C)c1ccc(-c2n(C)c3ccccc3[n+]2C)cc1
  A = 0.29µM* | B = 6% | C = -18% | D = 1% | E = 5% | F = 26% | G = -24% | H = -16% | I = ?
(4) Cn1c(-c2cccc([N+](=O)[O-])c2)[n+](C)c2ccccc21
  A = ? | B = -2% | C = -11% | D = -5% | E = -1% | F = 23% | G = · | H = · | I = ·
(5) COC(=O)/C(C#N)=C/c1c(Oc2cccc(C)c2C)nc2ccccn2c1=O
  A = 3% | B = -4% | C = 1% | D = -3% | E = 0% | F = 0% | G = · | H = · | I = ·
(6) COc1ccc(-c2nc(SC(CC(=O)NCCN3CCOCC3)c3cccs3)n[nH]2)cc1 (configuration not stated)
  A = 2% | B = -2% | C = 0% | D = -5% | E = 2% | F = 7% | G = · | H = · | I = ·
(7) Cc1cc(C)c(S(=O)(=O)Nc2cccc3cccnc23)c(C)c1
  A = 2.9µM* | B = · | C = -16% | D = ? | E = · | F = · | G = 0% | H = -23% | I = 16µM*
(8) Cc1cc(C)c(S(=O)(=O)Nc2cccc3nsnc23)c(C)c1
  A = -26% | B = ? | C = -4% | D = 5% | E = 0% | F = -1% | G = · | H = · | I = ·
(9) O=C(NCc1cccc(Cl)c1)c1ccc(NC(=O)N2CCSc3ccccc32)cc1
  A = ? | B = · | C = -3% | D = -2% | E = 0% | F = -6% | G = · | H = · | I = ·
(10) CCCCCCCCCCn1c2c(c(=N)c3c1CCC3)CCC2
  A = ? | B = -15% | C = ? | D = -14% | E = -5% | F = ? | G = · | H = · | I = ·
(11) CCCCCn1c2c(c(=N)c3ccccc31)CCC2
  A = 2.6µM* | B = 1% | C = -5% | D = -6% | E = 0% | F = ? | G = 2% | H = -10% | I = 4.1µM*
(12) N=c1c2c(n(Cc3ccccc3)c3c1CCC3)CCC2
  A = 1.5µM* | B = -10% | C = ? | D = -8% | E = -1% | F = ? | G = -1% | H = -4% | I = ?
(13) N=c1c2c(n(Cc3ccc(Cl)cc3)c3c1CCC3)CCC2
  A = ? | B = 6% | C = -4% | D = -7% | E = 0% | F = ? | G = · | H = · | I = ·
(14) Cc1ccc(N2CCN(C(=O)c3cn(C)c4ccc(S(=O)(=O)N(C)C)cc4c3=O)CC2C)cc1 (configuration not stated)
  A = 8% | B = · | C = 9% | D = 1% | E = -1% | F = 4% | G = · | H = · | I = ·
(15) O=C(Nc1cccc(S(=O)(=O)Nc2ccc(Cl)cc2)c1)c1ccccn1
  A = 8.2µM* | B = ? | C = ? | D = 0% | E = 0% | F = · | G = -9% | H = 4% | I = ·
(16) c1ccc(CC2CCN(c3ncnc4sccc34)CC2)cc1
  A = 5.2µM* | B = 3% | C = -5% | D = 4% | E = 0% | F = 10% | G = -29% | H = -3% | I = 3.7µM*
(17) Cc1ccc(S(=O)(=O)N2CCN(c3ncnc4sccc34)CC2)cc1
  A = 7.3µM* | B = 5% | C = -8% | D = 0% | E = 1% | F = 16% | G = -2% | H = 4% | I = 8.2µM*
(18) Cc1ccc(-c2csc3ncnc(N4CCN(S(=O)(=O)c5ccc(C#N)cc5)CC4)c23)cc1
  A = · | B = · | C = · | D = -3% | E = 0% | F = · | G = · | H = · | I = ·
(19) COc1ccccc1N1CCN(C(=O)C2CCCN(S(=O)(=O)c3ccc4c(c3)CCCN4C(C)=O)C2)CC1 (configuration not stated)
  A = 9.2µM* | B = -28% | C = -11% | D = -7% | E = 0% | F = ? | G = -1% | H = -1% | I = 9.2µM*
(20) COc1ccccc1N1CCN(C(=O)C2CCCN(S(=O)(=O)c3ccc(C)cc3)C2)CC1 (configuration not stated)
  A = ? | B = -1% | C = 4% | D = 2% | E = 0% | F = · | G = · | H = · | I = ·
(21) CC(C)c1ccc(-n2c(-c3ccccc3)c[n+]3c2CCc2ccccc2-3)cc1
  A = 2.1µM* | B = -14% | C = 10µM* | D = -8% | E = 24% | F = 28% | G = 2% | H = ? | I = 2.6µM*
(22) CC(C)NC(=O)c1ccc(-n2c(-c3ccccc3)cc3c2CCCC3)cc1
  A = -2% | B = · | C = 13% | D = 3% | E = ? | F = 16% | G = · | H = · | I = ·
(23) COc1ccccc1-n1c(-c2ccccc2)c[nH]c1=S
  A = -1% | B = ? | C = 13% | D = -3% | E = 0% | F = 1% | G = · | H = · | I = ·
(24) COc1ccccc1-n1c(-c2ccccc2)c[n+]2c1CCc1ccccc1-2
  A = 3.7µM* | B = 1% | C = ? | D = -6% | E = -1% | F = ? | G = 2% | H = -11% | I = 8.2µM*
(25) CCOC(=O)N/N=C1/C[C@@H](O)[C@@H](O)[C@@H]2[C@@H]3C(=O)N([C@@H](C)c4ccccc4)C(=O)[C@H]3CC[C@H]12
  A = · | B = · | C = · | D = -3% | E = · | F = · | G = · | H = · | I = ·
(26) COc1ccc(NC(=O)C(C)N2c3cccc4cccc(c34)S2(=O)=O)cc1 (configuration not stated)
  A = · | B = 11% | C = 18% | D = 2% | E = 0% | F = -1% | G = · | H = · | I = ·
(27) COc1ccc(NC(=O)C(C)N2c3cccc4cccc(c34)S2(=O)=O)cc1OC (configuration not stated)
  A = 8.2µM* | B = 13% | C = -28% | D = -3% | E = 1% | F = 7% | G = -1% | H = -8% | I = 23µM*
(28) CCN(c1ccccc1)S(=O)(=O)c1cc(C(=O)Nc2ccc(Br)cc2)ccc1F
  A = 5.8µM* | B = 2% | C = ? | D = -4% | E = 5% | F = ? | G = -12% | H = -29% | I = 12µM*
(29) CC12CCC(=O)C=C1C(F)CC1C2C(O)CC2(C)C1CCC2(O)C(=O)CO (configuration not stated)
  A = 0.058µM* | B = · | C = 4% | D = 2% | E = 2% | F = · | G = 0% | H = -5% | I = 0.058µM*
(30) CC(=O)OCC(=O)[C@@]1(O)CC[C@H]2[C@@H]3CCC4=CC(=O)C=C[C@]4(C)[C@H]3[C@@H](O)C[C@@]21C
  A = 0.052µM* | B = -2% | C = -8% | D = 0% | E = 0% | F = -29% | G = 0% | H = -6% | I = 0.041µM*
(31) C[C@]12C=CC(=O)C=C1[C@@H](F)C[C@@H]1[C@@H]2[C@@H](O)C[C@@]2(C)[C@H]1CC[C@]2(O)C(=O)CO
  A = · | B = · | C = · | D = -4% | E = · | F = · | G = · | H = · | I = ·
(32) C[C@]12C=CC(=O)C=C1CCC1C3CC[C@](O)(C(=O)CO)[C@@]3(C)CC3OC312 (some centres not stated)
  A = -18% | B = 1% | C = -1% | D = -2% | E = 0% | F = -10% | G = · | H = · | I = ·

Looked up above:
cpd 27 in A549 tox-2 reads -8%
cpd 29 in GRP78 ERSR act reads 2%
cpd 32 in Nrf2 activator reads 0%
